{"sequences": {"note": "By UniProt entry, the sequences of proteins in these tests, tags left out.", "UniProt P84022, whole entry, looked up": "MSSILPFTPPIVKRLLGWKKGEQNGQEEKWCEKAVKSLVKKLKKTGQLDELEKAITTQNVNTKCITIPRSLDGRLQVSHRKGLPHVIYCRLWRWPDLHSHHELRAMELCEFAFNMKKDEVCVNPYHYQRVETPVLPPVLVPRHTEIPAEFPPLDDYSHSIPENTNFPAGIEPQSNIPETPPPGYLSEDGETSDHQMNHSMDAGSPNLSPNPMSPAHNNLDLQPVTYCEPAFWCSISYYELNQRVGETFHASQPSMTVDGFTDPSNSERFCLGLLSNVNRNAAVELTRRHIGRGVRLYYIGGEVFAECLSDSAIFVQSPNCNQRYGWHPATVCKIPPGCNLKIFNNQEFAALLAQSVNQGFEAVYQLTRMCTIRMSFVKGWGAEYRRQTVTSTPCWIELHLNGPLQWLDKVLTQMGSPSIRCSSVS"}, "source": "PubChem BioAssay AID630", "about": "(Emory University Molecular Libraries Screening Center, 2007)", "note": "The list shows a part of the results, in another mix than the full data. Activity calls are given as the source filed them.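 How the source made its calls: active means compounds that reduce the energy-transfer binding signal between the protein and its labelled peptide by more than half; inactive means the rest.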", "data": [{"molecular_target": "Mothers against decapentaplegic homolog 3 (Homo sapiens) (UniProt P84022)", "assay": "Smad3/FoxH1 peptide binding inhibitors, primary screen, biochemical, TR-FRET (AID 630);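 further: 0% = Smad3 plus labelled peptide maximal FRET and 100% = peptide-only background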", "conditions": "TR-FRET Smad3/Dy647-FoxH1 peptide binding, europium anti-His; at 25 µM; active compounds read high", "values": [{"compound": "COC(=O)c1cc2c(s1)N=C(c1ccccc1)N(C)P2(=O)N1CCOCC1", "note": "(configuration not stated)", "inhibition": "inactive: 7.11%"}, {"compound": "O=P1(Nc2nc3ccc(Cl)cc3s2)COc2ccccc2O1", "note": "(configuration not stated)", "inhibition": "inactive: -24.3%"}, {"compound": "c1nnnn1CCn1cnnn1", "inhibition": "inactive: -3.05%"}, {"compound": "O=P(Nc1nccs1)(c1ccccc1)c1ccccc1", "inhibition": "inactive: 6.67%"}, {"compound": "C[C@@H](O)COc1ccc([As](=O)(O)O)cc1N", "inhibition": "inactive: 1.19%"}, {"compound": "CN1CCC[C@H](OC(=O)C(c2ccccc2)c2ccccc2)C1", "inhibition": "inactive: -0.27%"}, {"compound": "[N-]=[N+]=Nc1ccc([As](=O)(O)O)cc1", "inhibition": "inactive: 11.3%"}, {"compound": "O=C(OC1CN2CCC1CC2)c1cccc(Cl)c1", "note": "(configuration not stated)", "inhibition": "inactive: -4.33%"}, {"compound": "CCc1nc2c(n1)c1c(non1O)c1c2no[n+]1[O-]", "inhibition": "inactive: 7.62%"}, {"compound": "O=[N+]([O-])c1cccc2n[nH]nc12", "inhibition": "inactive: -2.28%"}, {"compound": "O=C(CO)Nc1ccc([As](=O)(O)O)cc1", "inhibition": "inactive: -1.78%"}, {"compound": "CC1CCN(C(=O)Oc2c(Cl)cc(Cl)c3cccnc23)CC1", "inhibition": "inactive: -27.5%"}, {"compound": "CN1CCCC(OC(=O)C(c2ccccc2)c2ccccc2)C1", "note": "(configuration not stated)", "inhibition": "inactive: -2.93%"}, {"compound": "O=[N+]([O-])c1ccc(C[As](=O)(O)O)cc1", "inhibition": "inactive: 1.41%"}, {"compound": "NCC[C@@H](N)CSP(=O)(O)O", "inhibition": "inactive: 11%"}, {"compound": "Oc1ccccc1CNc1ccccn1", "inhibition": "inactive: 0.72%"}, {"compound": "Cc1c2non([O-])c-2c(C)[n+](=O)[n+]1[O-]", "inhibition": "inactive: 12.7%"}, {"compound": "CCOP(=O)(Nc1ccccc1)OCC", "inhibition": "inactive: 0.23%"}, {"compound": "C(Cc1nn[nH]n1)c1nn[nH]n1", "inhibition": "inactive: -3.39%"}, {"compound": "[N-]=[N+]=NCC(O)CN=[N+]=[N-]", "note": "(configuration not stated)", "inhibition": "inactive: 2.48%"}, {"compound": "O=[As]c1ccc(S(=O)(=O)NCCO)cc1", "note": "(configuration not stated)", "inhibition": "inactive: 33.8%"}, {"compound": "ClCCSc1nnc(-c2cccnc2)o1", "inhibition": "inactive: -9.56%"}, {"compound": "[N-]=[N+]=NCC(N)=O", "inhibition": "inactive: 8.64%"}, {"compound": "NC(=O)Nc1cc([As](=O)(O)O)cc(I)c1O", "inhibition": "inactive: 11.1%"}, {"compound": "O=C(OC1CN2CCC1CC2)C12CC3CC(CC(C3)C1)C2", "note": "(configuration not stated)", "inhibition": "inactive: 3.29%"}, {"compound": "O=C(O)[C@@H](O)c1ccc([As](=O)(O)O)cc1", "inhibition": "inactive: -18.4%"}, {"compound": "O=C(COc1ccccc1)OC1CN2CCC1CC2", "note": "(configuration not stated)", "inhibition": "inactive: -9.88%"}, {"compound": "COP1(=S)c2c(C)nn(CCC#N)c2N=C(c2ccc(F)cc2)N1C", "note": "(configuration not stated)", "inhibition": "inactive: 11.8%"}, {"compound": "CCC(C)N(CC(C)C)C(=S)SC(NC(C)=O)C(Cl)(Cl)Cl", "note": "(configuration not stated)", "inhibition": "inactive: -5.92%"}, {"compound": "Cc1nn(-c2ccccc2)c2c1P(=O)(N1CCOCC1)N(C)C(c1ccccc1)=N2", "note": "(configuration not stated)", "inhibition": "inactive: 9.72%"}, {"compound": "O=P1(Nc2ccc(Br)cn2)COc2ccccc2OC1", "inhibition": "inactive: 0.12%"}, {"compound": "Cc1ccc(OCC(=O)OC2CN3CCC2CC3)cc1", "note": "(configuration not stated)", "inhibition": "inactive: 0.33%"}, {"compound": "O=P1(Nc2ncccn2)COc2ccccc2OC1", "inhibition": "inactive: 0.62%"}, {"compound": "Clc1n[nH]nc1-c1nn[nH][15n]1", "inhibition": "inactive: -0.88%"}, {"compound": "O=P1(Nc2ccccn2)COc2ccccc2OC1", "inhibition": "inactive: -4.91%"}, {"compound": "CC1(CBr)Cn2c(nc3ccccc3c2=O)S1", "note": "(configuration not stated)", "inhibition": "inactive: 1.68%"}, {"compound": "Cc1cccc(OCC(=O)OC2CN3CCC2CC3)c1", "note": "(configuration not stated)", "inhibition": "inactive: 3.31%"}, {"compound": "O=C(CC(=O)c1ccccc1)O[C@H]1CN2CCC1CC2", "inhibition": "inactive: -0.31%"}, {"compound": "NS(=O)(=O)Cc1ccc([As](=O)(O)O)cc1", "inhibition": "inactive: -1.25%"}, {"compound": "O=[As](O)(O)c1ccc([As](=O)(O)O)cc1", "inhibition": "inactive: -5.17%"}, {"compound": "CCOP1(=S)c2c(C)nn(CCC#N)c2N=C(c2ccccc2F)N1C", "note": "(configuration not stated)", "inhibition": "inactive: 0.37%"}, {"compound": "CCOP1(=S)c2c(C)nn(CCC#N)c2N=C(c2ccc(F)cc2)N1C", "note": "(configuration not stated)", "inhibition": "inactive: 0.64%"}]}]}
